Molecular target: D2R (Homo sapiens, UniProt P14416)
Conditions: result in words

Sequences of proteins named here, by UniProt entry; tags and fusion partners are left off. A change or cut given only in a name is not applied to a line headed by its entry.
UniProt P14416, whole entry: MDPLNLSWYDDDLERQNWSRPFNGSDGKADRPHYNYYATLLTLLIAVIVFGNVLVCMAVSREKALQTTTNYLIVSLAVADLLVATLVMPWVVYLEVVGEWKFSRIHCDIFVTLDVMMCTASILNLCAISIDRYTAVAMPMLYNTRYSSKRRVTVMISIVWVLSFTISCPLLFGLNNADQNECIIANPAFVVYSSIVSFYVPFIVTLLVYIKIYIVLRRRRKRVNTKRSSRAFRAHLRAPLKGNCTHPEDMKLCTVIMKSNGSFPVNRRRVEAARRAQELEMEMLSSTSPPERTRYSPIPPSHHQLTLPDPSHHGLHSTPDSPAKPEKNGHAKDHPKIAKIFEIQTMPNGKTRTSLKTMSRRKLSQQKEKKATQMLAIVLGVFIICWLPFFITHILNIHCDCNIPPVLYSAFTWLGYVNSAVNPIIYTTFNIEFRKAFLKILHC

In the case of CN1CN(c2ccccc2)C2(CCN(CCCC(=O)c3ccc(F)cc3)CC2)C1=O [methylspiperone], the “effect of presence or absence of Na+ on affinity for the D2R” value is reported as “does not affect”.

Reference: publication PMC5234269 (2015)
